Test results as given in patent US12377100B2 (GILEAD SCIENCES, INC., priority 2015, dated 2025).

Tests used:
Type in all cases: cell-based
[1] = tested on: IL12p40; assay: PBMC cytokine profiling assay, IL12-p40 induction; conditions: Homo sapiens, 24 h, read-out: IL12p40 AC50
Procedure: (§1) Certain compounds disclosed herein we tested according to the procedure described below. Additionally, certain reference compounds were prepared and tested along with the compounds of the present disclosure.
(§2) Compounds were dissolved and stored in DMSO (Sigma-Aldrich, St. Louis, MO) at 10 mM concentration.
(§3) Cryopreserved human PBMCs isolated from healthy donors were purchased from StemCell Technologies (Vancouver, Canada). Cell culture medium used was RPMI with L-Glutamine (Mediatech, Manassas, VA) supplemented with 10% fetal bovine serum (Hyclone, GE Healthcare, Logan, UT) and Penicillin-Streptomycin (Mediatech). […]
(§4) Cryopreserved human PBMCs (1×10e8 cells/ml) were thawed at 37° C. and resuspended in 25 mL warm cell culture medium. […] Cells were counted using a Cellometer (Nexcelcom Bioscience), adjusted to 2×10e6 cells, and incubated for 2 hours in an incubator set at 37° C., 5% CO2 to recover from cryopreservation. […]
(§5) Using a Biomek FX 384 well pipetting station (Beckman), conditioned culture medium (CCM) from the assay plate was transferred to MSD capture plates customized for each cytokine. […] MSD Read Buffer diluted to 2× in deionized water and 35 μL/well was added via Biomek FX instrument. The plates were read immediately in a MSD6000 reader. […]

[2] = tested on: IFNα; assay: PBMC cytokine profiling assay, IFNα induction; conditions: Homo sapiens, 24 h, read-out: IFNα AC50
Procedure: as §1, §2, §3, §4, §5

[3] = tested on: TNFα; assay: PBMC cytokine profiling assay, TNFα induction; conditions: Homo sapiens, 24 h, read-out: TNFα AC50
Procedure: as §1, §2, §3, §4, §5

CCCC[C@](C)(CO)Nc1nc(N)nc2cc(Cl)cnc12 [Example 114, (R)-2-((2-amino-7-chloropyrido[3,2-d]pyrimidin-4-yl)amino)-2-methylhexan-1-ol]
AC50 [1]: 0.2 µM | AC50 [2]: 34.1 µM | AC50 [3]: 0.34 µM
